Test system: dental pulp stem cells (DPSCs)
Experiment: Proliferation of dental pulp stem cells, cell number by the MTS method
Assay type: cell-based, human
Procedure: Dental pulp stem cells (DPSCs) were isolated in accordance with a method of Gronthos et al. (Proc. Natl. Acad. Sci. USA, 97: 13625-30, 2000) from a human extracted tooth that was submitted with informed consent under the permission of Okayama University Dental School Ethics Committee. […]
Specifically, the DPSCs prepared above (1) were cultured under 5% CO2 at 37° C. in α-MEM culture medium including 10% fetal bovine serum (FBS) containing SVS at a concentration of 1 μM, L-ascorbic acid (0.1 mM), L-glutamine (2 mM), penicillin (100 μg/ml), and streptomycin (100 μg/ml). The culture medium was exchanged twice a week, and the number of cells on […] was indirectly evaluated using the MTS method (Barltrop, J. A. et al. 5-(3-carboxymethoxyphenyl)-2-(4,5-dimenthylthiazoly)-3-(4-sulfophenyl)tetrazolium, inner salt (MTS) and related analogs of 3-(4,5-dimethylthiazolyl)-2,5-diphenyl-tetrazolium bromide (MTT) reducing to purple water-soluble formazans as cell-viability indicators. Bioorg. & Med. Chem. Lett. 1, 611, 1991). […]
Specifically, simvastatin (Calbiochem) (1 μM) as an HGM-CoA reductase inhibitor and the above-mentioned Fasudil (1 μM, 10 μM, and 100 μM) respectively were used to culture DPSCs in a manner similar to Example 1, section (2). On day 5 from the beginning of cultivation, the cell number of DPSCs was measured using the MTS method. […]

B1: BMP-2: bone morphogenetic protein (R&D systems) known to have a dentinogenesis inducing effect (protein, UniProt P12643 283-396, looked up)
Bone morphogenetic protein 2: QAKHKQRKRLKSSCKRHPLYVDFSDVGWNDWIVAPPGYHAFYCHGECPFPLADHLNSTNHAIVQTLVNSVNSKIPKACCVPTELSAISMLYLDENEKVVLKNYQDMVVEGCGCR
proliferation of dental pulp stem cells (DPSCs) (BMP-2 100 ng/ml, day 5 from the beginning of cultivation, vs control (PBS), significant increase, p<0.0070): 1.05 fold | effect on cellular proliferation of DPSCs compared with the control (day 5, Example 4, FIG. 9, statin = simvastatin 1 μM): an effect on cellular proliferation of DPSCs was not observed

— patent US20100183563A1, “DENTINOGENESIS PROMOTER AND DENTINOGENIC PULP-CAPPING MATERIAL” (ORGAN TECHNOLOGIES, INC., priority 2007, published 2010)
